## Experimental water solubility values from OPERA 2.9

Solubility in water is on a log10 molar scale (set defined at 25 °C).

| structure (SMILES) | water solubility (log10 mol/L) |
|---|---|
| CCCOC(=O)Nc1ccccc1 | -2.9 |
| c1ccc2c(c1)cc1ccc3cc4ccccc4c4ccc2c1c34 | -8.74 |
| O=C(NCCCCCCNC(=O)OCCCCO)OCCCCO | -1.929 |
| CC1=CC[C@H](C(C)C)C=C1 | -4.494 |
| COC(=O)/C(C)=C/C(=O)O | -0.752 |
| CSc1nc2ncncc2[nH]1 | -2.033 |
| Nc1cnc2c(N)ncnc2n1 | -2.909 |
| COc1cc([N+](=O)[O-])ccc1N | -3.205 |
| CCCOC(=O)CCC(=O)N(CC)CC | -0.617 |
| Nc1ccc(S(=O)(=O)Nc2cnccn2)cc1 | -3.7 |
| Cc1ccnc(NC(=O)c2cnccn2)n1 | -0.731 |
| COc1ccc(C(=O)Nc2ccccc2)cc1N=Nc1c(O)c(C(=O)Nc2cc(Cl)ccc2OC)cc2ccccc12 | -8.184 |
| O=C(O)Cc1ccccc1Oc1ccc(Cl)cc1Cl | -3.851 |
| CC(C)CC(C)OCC(O)CO (stereo not drawn) | -1.25 |
| CC(C)CCC(C)C(=O)O (stereo not drawn) | -1.983 |
| O=C1NCCN1CCN1CCC(c2cn(-c3ccc(F)cc3)c3ccc(Cl)cc23)CC1 | -4.661 |
| COc1cc(C(=O)NS(=O)(=O)c2ccccc2C)ccc1Cc1cn(C)c2ccc(NC(=O)OC3CCCC3)cc12 | -5.777 |
| Nc1ccc2cc(S(=O)(=O)[O-])cc(O)c2c1/N=N/c1ccccc1C(F)(F)F.[Na+] | -2.069 |
| Cc1c(O)cccc1C(=O)N[C@@H](CSc1ccccc1)[C@H](O)CN1C[C@H]2CCCC[C@H]2C[C@H]1C(=O)NC(C)(C)C | -5.473 |
| Oc1nc2cncnc2nc1O | -2.693 |
| O=C(O)COc1cccc(OCC(=O)O)c1OCC(=O)O | -1.363 |
| Cc1cc(NC(=O)N(C)C)cc(C)c1Br | -3.67 |
| CCOC1=CC(=CNNC(N)=O)C=CC1=O | -2.805 |
| Cn1cncc1C[C@H](N)C(=O)O | 0.072 |
| O=C1OCCCN1N=Cc1ccc([N+](=O)[O-])o1 | -3.48 |
| CCNC(=O)OCC | 0.555 |
| CCC1CCCCN1C(=O)COC(=O)c1ccccc1 (stereo not drawn) | -2.72 |
| CCCCCCc1ccc(O)cc1O | -2.59 |
| Nc1ccc(S(=O)(=O)Nc2ccc(Cl)nn2)cc1 | -1.611 |
| CCn1cc(C(=O)O)c(=O)c2cc(F)c(N3CCNCC3)nc21 | -1.971 |
| CC1(C)CCC(C)(C)c2cc(NC(=O)c3ccc(C(=O)O)cc3)ccc21 | -5.786 |
| Nc1[nH]c(=O)nc2nc[nH]c12 | -3.376 |
| CC(=O)OCCSCCOC(C)=O | -0.98 |
| Cc1cnc(N)[nH]c1=O | -1.489 |
| Nc1cc(S(=O)(=O)O)c2ccccc2c1O | -2.744 |
| O=C(O)c1cccc(C(F)(F)F)c1 | -3.11 |

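The OPERA project collected these measurements from public sources as training and test data for property models. One number stands for a compound and property, with no spread given. Conditions of the individual experiments are not part of the data. The measured form (salt, isomer or mixture) is not always the one drawn. Some upstream entries may be estimates or bounds without being marked so.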

Values as listed in the OPERA 2.9 repository of K. Mansouri.